Chains of the proteins cited; added tags and fusions are not shown.
UniProt P08172, whole entry: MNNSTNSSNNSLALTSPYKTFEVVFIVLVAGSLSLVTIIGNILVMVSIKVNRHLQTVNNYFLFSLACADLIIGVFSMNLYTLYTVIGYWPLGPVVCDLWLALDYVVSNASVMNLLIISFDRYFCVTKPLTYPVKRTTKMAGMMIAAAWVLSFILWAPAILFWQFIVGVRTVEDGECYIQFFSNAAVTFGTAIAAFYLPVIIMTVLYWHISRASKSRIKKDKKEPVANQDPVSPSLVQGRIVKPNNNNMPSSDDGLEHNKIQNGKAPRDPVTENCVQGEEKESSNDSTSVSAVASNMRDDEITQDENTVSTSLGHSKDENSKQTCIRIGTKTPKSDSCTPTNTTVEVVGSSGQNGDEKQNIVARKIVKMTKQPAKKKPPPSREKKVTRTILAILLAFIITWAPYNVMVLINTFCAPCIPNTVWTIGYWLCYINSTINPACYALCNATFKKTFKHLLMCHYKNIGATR
UniProt P08173, whole entry: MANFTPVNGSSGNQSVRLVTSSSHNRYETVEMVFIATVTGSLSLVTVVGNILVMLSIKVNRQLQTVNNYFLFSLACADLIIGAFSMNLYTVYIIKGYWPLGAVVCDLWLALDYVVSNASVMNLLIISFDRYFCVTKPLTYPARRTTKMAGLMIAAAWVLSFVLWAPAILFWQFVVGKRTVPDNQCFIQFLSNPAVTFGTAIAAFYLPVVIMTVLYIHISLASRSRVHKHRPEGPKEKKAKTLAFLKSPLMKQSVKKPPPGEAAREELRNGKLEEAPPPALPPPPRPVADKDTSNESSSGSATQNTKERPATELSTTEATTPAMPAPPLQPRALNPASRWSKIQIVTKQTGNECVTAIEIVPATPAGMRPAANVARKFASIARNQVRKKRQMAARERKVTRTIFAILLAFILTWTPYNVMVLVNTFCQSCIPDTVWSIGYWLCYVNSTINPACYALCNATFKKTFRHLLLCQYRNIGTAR

In ChEMBL document CHEMBL1132561, “Identification and characterization of m1 selective muscarinic receptor antagonists1” (J Med Chem, 1999):

Tests used:
[1] = target: Muscarinic acetylcholine receptor M2 (Homo sapiens, UniProt P08172); assay: biochemical; type: cell-based, CHO
[2] = target: Muscarinic acetylcholine receptor M4 (Homo sapiens, UniProt P08173); assay: biochemical; type: cell-based, CHO

## CCN1CCC(c2ccccc2)=C(C(=O)OCCc2ccc(OC)cc2)C1
[1]
  IC50: 38.5 µM
[2]
  IC50: 42.3 µM
